# Measured values: US20150045291A1, “LIPOPEPTIDE CONJUGATES COMPRISING SPHINGOLIPID AND HIV GP41 DERIVED PEPTIDES” (priority 2012, published 2015)
# Starred links: 1 amine or outer side, 2 acyl side, 3 side chain; linkers in the order of their positions; H or OH if unused. Residues, ends and D or L forms follow the SMILES beside them. *: point of attachment. Sphinganine = CCCCCCCCCCCCCCC[C@@H](O)[C@H](CO)N*; CO = O=C([*:1])[*:2]
# System: fully infectious HIV-1 HXB2
# Assay: Washing experiment: peptides pre-incubated with TZM-bl cells, washed, then HXB2 virus added
# Conditions: 1 hour pre-incubation with TZM-bl cells, three washes
compound,measurement,value
enfuvirtide,"Fold increase in IC50 following cell washing, (IC50 1)/(IC50 2)",36 fold
"CCCCCCCCCCCCCCC[C@@H](O)[C@H](CO)NC(=O)N[C@@H](CC(C)C)C(=O)N[C@@H](CC(C)C)C(=O)N[C@@H](CCC(N)=O)C(=O)N[C@@H](CC(C)C)C(=O)N[C@H](C(=O)N[C@H](C(=O)N[C@@H](Cc1c[nH]c2ccccc12)C(=O)NCC(=O)N[C@H](C(=O)N[C@@H](CCCCN)C(=O)N[C@@H](CCC(N)=O)C(=O)N[C@@H](CC(C)C)C(=O)N[C@@H](CCC(N)=O)C(=O)N[C@@H](C)C(=O)N[C@@H](CCCNC(=N)N)C(=O)N[C@H](C(=O)N[C@@H](CC(C)C)C(N)=O)[C@@H](C)CC)[C@@H](C)CC)C(C)C)[C@@H](C)O [Sphinganine-N17, Sphinganine-LLQLTVWGIKQLQARIL] ({Sphinganine-CO}-LLQLTVWGIKQLQARIL-NH2)","Fold increase in IC50 following cell washing, (IC50 1)/(IC50 2)",5 fold
